Experiments:
[1] = Solubility in solvents (physicochemical properties)
Pepsin = Pepsin (Bos taurus, UniProt P00792); test: Inhibition against pepsin (hemoglobin degradation, UV absorption at 280 nm); details: read-out: IC50 (concentration of the compound required to achieve 50% inhibition); substrate 2.0% hemoglobin in 0.06N-hydrochloric acid, 35° C., 10 minutes

Amino acid sequences for entries named in this document (tags omitted). Residues count along the entry.
UniProt P00792, 43-372 limits assumed: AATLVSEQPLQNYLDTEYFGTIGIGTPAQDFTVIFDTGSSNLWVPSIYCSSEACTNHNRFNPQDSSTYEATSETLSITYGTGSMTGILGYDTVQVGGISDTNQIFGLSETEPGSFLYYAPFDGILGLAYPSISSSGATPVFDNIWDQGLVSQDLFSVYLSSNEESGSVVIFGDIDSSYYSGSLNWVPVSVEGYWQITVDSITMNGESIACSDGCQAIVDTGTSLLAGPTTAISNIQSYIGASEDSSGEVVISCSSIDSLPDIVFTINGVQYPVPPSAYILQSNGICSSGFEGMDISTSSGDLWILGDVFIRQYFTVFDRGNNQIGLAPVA

| Structure (SMILES) | Solubility in butanol [1] | Solubility in methanol, ethanol and dimethyl sulfoxide [1] | Solubility in water, benzene, ether, petroleum ether, chloroform, carbon tetrachloride, hexane and ethyl acetate [1] | IC50 (Pepsin) [nM] |
| --- | --- | --- | --- | --- |
| CC(C)C[C@H](NC(=O)[C@H](C)NC(=O)C[C@H](O)[C@H](CC(C)C)NC(=O)[C@H](C)NC(=O)C[C@H](O)[C@H](CC(C)C)NC(=O)[C@@H](NC(=O)[C@@H](NC(=O)C(C)C(=O)O)C(C)C)C(C)C)[C@@H](O)CC(=O)O (some centres unmarked) | soluble | easily soluble | sparingly soluble | 29.1 |
| CC(=O)[C@H](CC(C)C)NC(=O)[C@H](C)NC(=O)C[C@H](O)[C@H](CC(C)C)NC(=O)[C@@H](NC(=O)[C@@H](NC(=O)C(C)C(=O)O)C(C)C)C(C)C (some centres unmarked) | soluble | easily soluble | sparingly soluble | 26 |

More lines, in order of falling IC50 (Pepsin), values ahead:

| Solubility in butanol [1] | Solubility in methanol, ethanol and dimethyl sulfoxide [1] | Solubility in water, benzene, ether, petroleum ether, chloroform, carbon tetrachloride, hexane and ethyl acetate [1] | IC50 (Pepsin) [nM] | Structure (SMILES) |
| --- | --- | --- | --- | --- |
| soluble | easily soluble | sparingly soluble | 25.4 | COC(=O)C(C)C(=O)N[C@H](C(=O)N[C@H](C(=O)N[C@@H](CC(C)C)[C@@H](O)CC(=O)N[C@@H](C)C(=O)N[C@@H](CC(C)C)C(C)=O)C(C)C)C(C)C (some centres unmarked) |
| soluble | easily soluble | sparingly soluble | 22.4 | COC(=O)C[C@H](O)[C@H](CC(C)C)NC(=O)[C@H](C)NC(=O)C[C@H](O)[C@H](CC(C)C)NC(=O)[C@@H](NC(=O)[C@@H](NC(=O)C(C)C(=O)O)C(C)C)C(C)C (some centres unmarked) |
| soluble | easily soluble | sparingly soluble | 14.3 | CC(C)C[C@H](NC(=O)[C@H](C)NC(=O)C[C@H](O)[C@H](CC(C)C)NC(=O)[C@@H](NC(=O)[C@@H](NC(=O)C(C)C(=O)O)C(C)C)C(C)C)[C@@H](O)CC(=O)O (some centres unmarked) |

From patent publication US5087614A, “Enzyme inhibitor and method of producing the same” (Suntory Limited, priority 1987, dated 1992)
